The values below come from patent US7759385B2, “4-substituted 1-aminocyclohexane compounds for utilization as ORL1-receptor and mu-opiate receptor ligands” (dated 2010).

Protein sequences, listed by entry. Tags and fused reporters are not part of them. Lines headed by an entry give the natural chain unless they say otherwise; changes in a name come on top.
UniProt P41146: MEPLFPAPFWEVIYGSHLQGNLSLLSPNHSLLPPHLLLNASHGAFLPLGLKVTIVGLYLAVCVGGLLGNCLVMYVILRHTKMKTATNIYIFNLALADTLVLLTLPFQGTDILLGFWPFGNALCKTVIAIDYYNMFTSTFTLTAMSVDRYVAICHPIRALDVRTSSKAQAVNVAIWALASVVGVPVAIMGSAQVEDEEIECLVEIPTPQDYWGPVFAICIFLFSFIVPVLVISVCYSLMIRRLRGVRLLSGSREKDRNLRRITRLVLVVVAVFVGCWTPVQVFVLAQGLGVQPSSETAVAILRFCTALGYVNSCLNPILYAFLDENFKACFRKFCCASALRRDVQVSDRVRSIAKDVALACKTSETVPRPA
UniProt P35372, whole entry, looked up: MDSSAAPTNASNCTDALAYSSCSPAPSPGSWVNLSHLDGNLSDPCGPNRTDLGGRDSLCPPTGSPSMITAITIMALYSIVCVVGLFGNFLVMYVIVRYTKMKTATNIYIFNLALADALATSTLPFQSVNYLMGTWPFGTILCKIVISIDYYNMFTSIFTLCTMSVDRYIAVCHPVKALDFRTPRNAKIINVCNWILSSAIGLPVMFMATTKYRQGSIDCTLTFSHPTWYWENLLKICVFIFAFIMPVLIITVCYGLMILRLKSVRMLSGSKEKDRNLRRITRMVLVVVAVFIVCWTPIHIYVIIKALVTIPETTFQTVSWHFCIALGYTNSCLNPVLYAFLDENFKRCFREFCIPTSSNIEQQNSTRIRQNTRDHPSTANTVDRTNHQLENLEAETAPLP

For one assay, the target named is ORL1 receptor (Homo sapiens, UniProt P41146). Kind of assay: ORL1 receptor binding assay with 3H-nociceptin/orphanin FQ, membranes of recombinant CHO-ORL1 cells. Conditions: 3H-nociceptin/orphanin FQ 0.5 nM; for Ki: read-out: ORL1 Ki, CHO-ORL1 membranes; for ORL1 % inhibition [1 μM]: test substance 1 μM.
The nature of assay [1]: Analgesia investigation in the tail flick test in mice. Conditions: dose 10 mg/kg. For orientation: Thermal pain tests record how soon the animal reacts.
The target in another assay is human μ opiate receptor (Homo sapiens, UniProt P35372). Put plainly: μ opiate receptor binding assay, membrane preparation of CHO-K1 cells, [3H]-naloxone (or DAMGO) displacement. Conditions: for μ % inhibition [1 μM] (DA) / μ % inhibition [1 μM]: test substance 1 μmole/l; for μ % inhibition [1 μM] (DA): (DA): DAMGO instead of naloxone; for μ % inhibition [1 μM]: radioligand [3H]-naloxone.

Setting [2] is: read-out: μ Ki, radioligand [3H]-naloxone 1 nmole/l, Cheng-Prusoff.
[3] abbreviates: read-out: μ Ki (DA), (DA): measured using DAMGO instead of naloxone.

Like-named read-outs stand apart in the source and are kept apart here.

Consider `CN(C)C1(c2ccccc2)CCC(=CC(=O)N2CCCC(c3c[nH]c4ccccc34)C2)CC1` (stereo not shown), for which the inhibitory constant (Ki) (as a rule, a dissociation constant, usually derived from enzyme kinetics or from competition with a known ligand) at ORL1 receptor came out at 0.043 µM; at human μ opiate receptor (setting [2]), 0.0079 µM. Also, the “Tail Flick (mice, i.v.) % inhibition” value in assay [1] is on record as 100%.
In the case of “4-(5-chloro-1H-indol-3-yl)-3,6-dihydro-2H-pyridine-1-carboxylic acid-(4-dimethylamino-4-phenylcyclohexylmethyl)-amide [Example 58]”, the inhibitory constant (Ki) at ORL1 receptor is 0.12 µM; at human μ opiate receptor (setting [3]), 0.031 µM.
Consider `CN(C)C1(c2ccccc2)CCC(NC(=O)N2CCC(c3c[nH]c4ccc(Cl)cc34)CC2)CC1` (stereo not shown), for which the “ORL1 % inhibition [1 μM]” value on ORL1 receptor came out at 59%. Also, the inhibitory constant (Ki) at human μ opiate receptor (setting [2]) amounted to 0.013 µM.
With `COc1ccc2[nH]cc(C3=CCN(C(=O)NCC4CCC(c5ccccc5)(N(C)C)CC4)CC3)c2c1` (stereo not shown), the “ORL1 % inhibition [1 μM]” value at ORL1 receptor is 63%. In addition, at human μ opiate receptor, the “μ % inhibition [1 μM] (DA)” value was determined as 52%.
For `CN(C)C1(c2ccccc2)CCC(CC(=O)N2CCC(c3c[nH]c4ccccc34)C2)CC1` (stereo not shown), the results for the inhibition constant Ki on ORL1 receptor and on human μ opiate receptor (setting [2]) were 0.021 µM and 0.0022 µM, respectively.
Turning to “4-(5-chloro-1H-indol-3-yl)-3,6-dihydro-2H-pyridine-1-carboxylic acid-(4-dimethylamino-4-phenylcyclohexylmethyl)-amide [Example 59]”, the inhibition constant Ki came to 0.082 µM at ORL1 receptor and 0.038 µM on human μ opiate receptor (setting [3]).
Turning to “4-(5-methoxy-1H-indol-3-yl)piperidine-1-carboxylic acid-(4-dimethylamino-4-phenylcyclohexyl)-amide”, at ORL1 receptor, the “ORL1 % inhibition [1 μM]” value was 39%. On human μ opiate receptor (setting [2]), the Ki worked out at 0.031 µM.
Consider `CN(C)C1(c2ccccc2)CCC(N2CC=C(c3c[nH]c4ccccc34)CC2)CC1` (stereo not shown), for which the inhibition constant Ki at ORL1 receptor was determined as 0.17 µM. Further, the “μ % inhibition [1 μM]” value at human μ opiate receptor is reported as 90%.
`CN(C)C1(c2ccccc2)CCC(NC(=O)N2CCCC(c3c[nH]c4ccc(F)cc34)C2)CC1` (stereo not shown): the “ORL1 % inhibition [1 μM]” value at ORL1 receptor came out at 34%. Further, the “μ % inhibition [1 μM]” value at human μ opiate receptor was found to be 57%.
On to `CN(C)C1(c2ccccc2)CCC(=CC(=O)N2CCC(c3c[nH]c4ccc(Cl)cc34)CC2)CC1` (stereo not shown), for which the Ki at ORL1 receptor worked out at 0.11 µM; on human μ opiate receptor (setting [2]), 0.021 µM.
For `CN(C)C1(c2ccccc2)CCC(NC(=O)N2CCCC(c3c[nH]c4ccc(Cl)cc34)C2)CC1` (single isomer, unassigned) the same measures were 0.033 µM and 0.0081 µM.
With `COc1ccc2[nH]cc(C3=CCN(C(=O)C=C4CCC(c5ccccc5)(N(C)C)CC4)CC3)c2c1` (stereo not shown), the Ki on ORL1 receptor was 0.067 µM; at human μ opiate receptor (setting [3]), 0.024 µM.
On to `COc1ccc2[nH]cc(C3=CCN(C4CCC(c5ccccc5)(N(C)C)CC4)CC3)c2c1` (stereo not shown), for which the inhibition constant (Ki) at ORL1 receptor amounted to 0.15 µM. For the same compound, at human μ opiate receptor, the “μ % inhibition [1 μM]” value came out at 91%.
In the case of “4-(5-fluoro-1H-indol-3-yl)piperidine-1-carboxylic acid-(4-dimethylamino-4-phenylcyclohexyl)-amide”, on ORL1 receptor, the “ORL1 % inhibition [1 μM]” value turned out to be 62%. Moreover, the Ki on human μ opiate receptor (setting [2]) amounted to 0.0083 µM.
For the compound `COc1ccc2[nH]cc(C3=CCN(C(=O)NCC4CCC(c5ccccc5)(N(C)C)CC4)CC3)c2c1` (single isomer, unassigned), the values for the inhibition constant Ki at ORL1 receptor and at human μ opiate receptor (setting [3]) were 0.1 µM and 0.03 µM, respectively.
For `CN(C)C1(c2ccccc2)CCC(N2CCCCC2)CC1` (stereo not shown), the “μ % inhibition [1 μM] (DA)” value at human μ opiate receptor came out at 23%.
As to `CN(C)C1(c2ccc(F)cc2)CCC(N2CCC(c3c[nH]c4ccccc34)C2)CC1` (single isomer, unassigned), the Ki is 0.087 µM at ORL1 receptor and 0.022 µM on human μ opiate receptor (setting [2]).
`CN(C)C1(c2ccccc2)CCC(NC(=O)N2CCCC(c3c[nH]c4ccc(Cl)cc34)C2)CC1` (stereo not shown): the “ORL1 % inhibition [1 μM]” value at ORL1 receptor is on record as 26%. The “μ % inhibition [1 μM]” value on human μ opiate receptor is 56%.
In the case of `CN(C)C1(c2ccccc2)CCC(=CC(=O)N2CCC(c3c[nH]c4ccccc34)CC2)CC1` (stereo not shown), the results for the Ki on ORL1 receptor and on human μ opiate receptor (setting [2]) were 0.095 µM and 0.041 µM, respectively.
Taken in the same sequence, the figures for `CN(C)C1(c2ccccc2)CCC(CC(=O)N2CCCC(c3c[nH]c4ccccc34)C2)CC1` (stereo not shown) were 0.056 µM and 0.0031 µM.
`CN(C)C1(c2ccc(F)cc2)CCC(=CC(=O)N2CCC(c3c[nH]c4ccccc34)C2)CC1` (stereo not shown): on ORL1 receptor, the “ORL1 % inhibition [1 μM]” value was 45%. Besides, on human μ opiate receptor (setting [2]), the inhibition constant Ki is 0.022 µM.
On to `CN(C)C1(c2ccccc2)CCC(N2CC=C(c3c[nH]c4ccc(Cl)cc34)CC2)CC1` (stereo not shown), for which the Ki at ORL1 receptor is 0.095 µM. For the same compound, the “μ % inhibition [1 μM]” value on human μ opiate receptor was 85%.
In the case of `CN(C)C1(c2ccc(F)cc2)CCC(N2CCC(c3c[nH]c4ccccc34)C2)CC1` (stereo not shown), the “ORL1 % inhibition [1 μM]” value at ORL1 receptor was found to be 10%. On human μ opiate receptor, the “μ % inhibition [1 μM]” value came to 66%.
With `CN(C)C1(c2ccccc2)CCC(=CC(=O)N2CC=C(c3c[nH]c4ccccc34)CC2)CC1` (stereo not shown), the results for the Ki at ORL1 receptor and on human μ opiate receptor (setting [3]) were 0.039 µM and 0.031 µM, respectively.
Turning to `CN(C)C1(c2ccccc2)CCC(NC(=O)N2CCC(C3C=Nc4ccc(F)cc43)CC2)CC1` (stereo not shown), the “ORL1 % inhibition [1 μM]” value on ORL1 receptor turned out to be 66%.
